Measurements as given in BindingDB's records for 24076173.

By UniProt entry, the sequences of proteins in these tests, tags left out. Residues count along the entry.
UniProt P22303, 32-614 limits assumed: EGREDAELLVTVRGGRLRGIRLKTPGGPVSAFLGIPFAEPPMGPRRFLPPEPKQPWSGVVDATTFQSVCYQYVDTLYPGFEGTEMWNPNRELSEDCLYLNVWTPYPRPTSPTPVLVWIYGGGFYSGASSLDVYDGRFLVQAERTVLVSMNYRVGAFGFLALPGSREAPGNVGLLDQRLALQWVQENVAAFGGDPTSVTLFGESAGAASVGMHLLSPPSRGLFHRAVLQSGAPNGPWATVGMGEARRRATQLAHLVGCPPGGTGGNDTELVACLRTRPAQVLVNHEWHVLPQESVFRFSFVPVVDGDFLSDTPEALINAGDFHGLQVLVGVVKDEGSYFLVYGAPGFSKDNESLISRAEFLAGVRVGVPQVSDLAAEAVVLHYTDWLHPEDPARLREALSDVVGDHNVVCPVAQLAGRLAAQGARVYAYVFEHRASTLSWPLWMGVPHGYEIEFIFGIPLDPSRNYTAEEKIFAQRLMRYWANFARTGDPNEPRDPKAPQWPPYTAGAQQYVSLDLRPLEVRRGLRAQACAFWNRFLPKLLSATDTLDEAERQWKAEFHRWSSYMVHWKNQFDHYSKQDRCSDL

Biological target: Acetylcholinesterase (Homo sapiens, UniProt P22303)
Experiment: Reversible inhibition of human recombinant AChE using acetylthiocholine iodide as substrate measured after 2 hrs by Ellmans method

Row | Compound | IC50 [µM]
1 | COc1ccc(C(F)(F)F)c[n+]1CCCCCO | 131
2 | COc1c(F)ccc[n+]1C | 110
